We go through two variants from IntAct's records for PubMed 21481793.

B1: Merlin (Homo sapiens), P35240 (parent)
chain: MAGAIASRMSFSSLKRKQPKTFTVRIVTMDAEMEFNCEMKWKGKDLFDLVCRTLGLRETWFFGLQYTIKDTVAWLKMDKKVLDHDVSKEEPVTFHFLAKFYPENAEEELVQEITQHLFFLQVKKQILDEKIYCPPEASVLLASYAVQAKYGDYDPSVHKRGFLAQEELLPKRVINLYQMTPEMWEERITAWYAEHRGRARDEAEMEYLKIAQDLEMYGVNYFAIRNKKGTELLLGVDALGLHIYDPENRLTPKISFPWNEIRNISYSDKEFTIKPLDKKIDVFKFNSSKLRVNKLILQLCIGNHDLFMRRRKADSLEVQQMKAQAREEKARKQMERQRLAREKQMREEAERTRDELERRLLQMKEEATMANEALMRSEETADLLAEKAQITEEEAKLLAQKAAEAEQEMQRIKATAIRTEEEKRLMEQKVLEAEVLALKMAEESERRAKEADQLKQDLQEAREAERRAKQKLLEIATKPTYPPMNPIPAPLPPDIPSFNLIGDSLSFDFKDTDMKRLSMEIEKEKVEYMEKSKHLQEQLNELKTEIEALKLKERETALDILHNENSDRGGSSKHNTIKKLTLQSAKSRVAFFEEL

The experiment covers variants of B1. The following applies: with amot_human AMOT.
As to E463K, the “effect of a mutation on the interaction” value is on record as “decreasing interaction”.

As to R346S, the “effect of a mutation on the interaction” value is reported as “decreasing interaction”.
